## Properties, as collected for the OPERA models

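The numbers are reported measurements, compiled and curated for the OPERA QSAR suite. One number stands for a compound and property, with no spread given. Conditions of the individual experiments are not part of the data. Where a salt, mixture or single isomer is drawn, the source does not say that exactly this form was tested. Some upstream entries may be estimates or bounds without being marked so.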

The melting point is given in degrees Celsius.
The boiling point refers to atmospheric pressure (760 mmHg), by the definition of the set.
logP is the log10 of the octanol-water partition coefficient; higher is more lipophilic.
Solubility in water is on a log10 molar scale (set defined at 25 °C).
Vapor pressures (log10 mmHg) refer to near room temperature, 15 to 30 °C; higher is more volatile.
fu is the fraction unbound in human plasma, from 0 to 1.

- CCCCCCCC(=O)c1ccc(O)c(C(=O)O)c1: mp 115 °C; water solubility -3.949 (log10 mol/L)
- COC(=O)NCCC[Si](OC)(OC)OC: bp 258 °C; vapor pressure -3.354 (log10 mmHg)
- OC(CCN1CCCCC1)(c1ccccc1)C1CCCC1 (stereo not drawn): logP 4; water solubility -4.5 (log10 mol/L)
- c1ccc(CCOC2CCCCC2)cc1: logP 4.9; vapor pressure -2.393 (log10 mmHg)
- O=C(OCc1ccccc1)c1ccccc1O: logP 4; water solubility -4.191 (log10 mol/L); vapor pressure -4.108 (log10 mmHg)
- CCC(=O)O[C@]1(C(=O)CCl)[C@@H](C)C[C@H]2[C@@H]3C[C@H](F)C4=CC(=O)C=C[C@]4(C)[C@@]3(F)[C@@H](O)C[C@@]21C: logP 2.9; water solubility -4.807 (log10 mol/L)
- O=C(OCCOCCOCCOC(=O)c1ccccc1)c1ccccc1: logP 3.2; water solubility -4.071 (log10 mol/L); vapor pressure -6.721 (log10 mmHg)
- CCCCCCCCCCCCCCCCCCOCCCN(C)C: mp 26.85 °C; logP 6.34; water solubility -6.852 (log10 mol/L); vapor pressure -6.87 (log10 mmHg)
- CC(CO)(CO)CO: logP -1.105; vapor pressure -4.62 (log10 mmHg)
- C#CCOCc1ccc(Cl)cc1: mp -13 °C; logP 3; water solubility -2.998 (log10 mol/L); vapor pressure -1.871 (log10 mmHg)
- COc1nc(OC)nc(-c2c(O)n(S(=O)(=O)C(F)F)c3c(F)cccc23)n1: logP 0.8; water solubility -6.209 (log10 mol/L)
- O=COCc1ccccc1: logP 1.79; water solubility -1.673 (log10 mol/L); vapor pressure 0.16 (log10 mmHg)
- CC(CC(=O)[O-])CC(C)(C)C.CC(CC(=O)[O-])CC(C)(C)C.[Zn+2] (stereo not drawn): mp 94 °C; water solubility -2.563 (log10 mol/L)
- CNc1ccc(O)cc1: mp 87 °C; logP 0.882; vapor pressure -2.513 (log10 mmHg)
- COc1ccc([N+](=O)[O-])cc1N=NC(C(C)=O)C(=O)Nc1ccccc1OC (stereo not drawn): mp 262 °C; logP 2.55; water solubility -7.308 (log10 mol/L)
- CC(C)CC(=O)CC(C)CC(C)C (stereo not drawn): mp -75.2 °C; water solubility -3.923 (log10 mol/L); vapor pressure -1.255 (log10 mmHg)
- Cc1cc(/N=N/c2c(O)ccc3ccccc23)c(S(=O)(=O)[O-])cc1Cl.Cc1cc(/N=N/c2c(O)ccc3ccccc23)c(S(=O)(=O)[O-])cc1Cl.[Sr+2]: logP 2.006; water solubility -7.623 (log10 mol/L)
- CCCCCCCCN=c1cc[nH]cc1: mp 65 °C; logP 2.28; water solubility -4.207 (log10 mol/L); vapor pressure -4.557 (log10 mmHg)
- Nc1nc(C2CC2)nc(C(=O)O)c1Cl: water solubility -1.881 (log10 mol/L); vapor pressure -7.432 (log10 mmHg)
- Fc1cccc(Cl)c1: logP 2.76; water solubility -2.35 (log10 mol/L)
- CCOC(=O)C(C#N)C(C)=O (stereo not drawn): mp 16.1 °C; logP 0.95
- CC(C)OC(=O)[C@H](C)OC(=O)C(C)(C)C: bp 207.5 °C; logP 3.32; water solubility -2.643 (log10 mol/L); vapor pressure -0.497 (log10 mmHg)
- CSCC[C@H](NC(=O)[C@H](Cc1c[nH]c2ccccc12)NC(=O)CCNC(=O)OC(C)(C)C)C(=O)N[C@@H](CC(=O)O)C(=O)N[C@@H](Cc1ccccc1)C(N)=O: logP 1.6; water solubility -5.395 (log10 mol/L)
- CCCN(CCC)CCc1cccc2c1CC(=O)N2: water solubility -2.868 (log10 mol/L); fu 0.6
- CCCCc1ccc(-c2ccc(-c3ccc(CC)cc3)c(F)c2F)cc1: mp 99 °C; bp 431 °C; water solubility -7.244 (log10 mol/L); vapor pressure -7.555 (log10 mmHg)
- CC(C)(C)c1cc(O)ccc1O: logP 1.725; water solubility -1.84 (log10 mol/L)
- CCCCCCC(=O)CO: mp 12.72 °C; bp 189.7 °C; logP 1.683; vapor pressure -0.694 (log10 mmHg)
- O=C(CC(C(=O)OC1CCCCC1)S(=O)(=O)[O-])OC1CCCCC1.[Na+] (stereo not drawn): mp 201.5 °C; water solubility -0.506 (log10 mol/L)
- CCCCCCCC(=O)OCCCOC(=O)CCCCCCC: mp 6 °C; logP 7.6; vapor pressure -5.227 (log10 mmHg)
- CCCCCCCCCCCC[n+]1ccccc1.[Cl-]: logP 0.271; vapor pressure -5.94 (log10 mmHg)
- O=C(Nc1nnc[nH]1)c1ccccc1O: logP 1.41; water solubility -4.663 (log10 mol/L); vapor pressure -4.512 (log10 mmHg)

Extract of 2 entries:

- CCCCCCCCCCCCCCCCCCOCCCN(C)C: mp 26.85 °C; logP 6.34; water solubility -6.852 (log10 mol/L); vapor pressure -6.87 (log10 mmHg)
- CCCCCCCCCCCC[n+]1ccccc1.[Cl-]: logP 0.271; vapor pressure -5.94 (log10 mmHg)

Source: data files of OPERA 2.9 (Mansouri et al.), github.com/kmansouri/OPERA.